Reference: US8653069B2, “Aralkyl substituted piperidine or piperazine derivatives and their use for treating schizophrenia” (Jiangsu Hengyi Pharmaceutical Co., Ltd., priority 2008, dated 2014)

Protein sequences, listed by entry. Tags and fused reporters are not part of them.
UniProt P14416, whole entry: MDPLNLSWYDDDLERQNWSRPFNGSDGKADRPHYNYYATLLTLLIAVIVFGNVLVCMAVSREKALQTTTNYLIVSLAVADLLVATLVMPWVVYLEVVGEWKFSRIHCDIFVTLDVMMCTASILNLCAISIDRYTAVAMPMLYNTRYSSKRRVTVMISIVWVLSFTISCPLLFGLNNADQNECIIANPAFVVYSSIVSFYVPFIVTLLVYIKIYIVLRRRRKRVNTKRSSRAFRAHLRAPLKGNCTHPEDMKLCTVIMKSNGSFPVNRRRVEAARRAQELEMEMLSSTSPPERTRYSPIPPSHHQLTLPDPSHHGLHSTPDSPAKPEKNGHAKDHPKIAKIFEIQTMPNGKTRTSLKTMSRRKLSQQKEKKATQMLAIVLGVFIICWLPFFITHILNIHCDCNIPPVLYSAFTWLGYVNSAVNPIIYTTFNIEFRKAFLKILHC

Molecular target: T1, dopamine D2 receptor (Homo sapiens, UniProt P14416)
T1 construct: expressed in transfected cells; host or cells: CHO-hD2L cells (membrane preparation)
Assay: Dopamine D2 receptor-binding assay ([3H]Spiperone displacement)
Settings: inhibition of binding of 0.4 nM [3H]Spiperone, CHO-hD2L film product, room temperature 120 minutes; read-out: IC50 (affinity to D2 receptor)
Experimental: A Dopamine D2 Receptor-Binding Assay
An isotope ligand for D2 receptor: [^3H]Spiperone (77.0 Ci/mmol); (+)Butaclamol; GF/C glass fiber media; a liposoluble scintillation solution; and the D2 receptor protein expressed by sf9 cells.
A binding assay of a film product of CHO-hD2L cells and [^3H]Spiperone is conducted in a 250 μl of 50 mM of Tris-HCl […] buffer (Ph=7.4) solution comprising 100 mM of NaCl, 1 mM of MgC12 and 1% of DMSO. A sample in duplicate containing compounds to be tested, 0.4 nM of [^3H]Spiperone and 12 ug of protein is maintained at room temperature for 120 minutes. The bound radioactive ligand is separated by flash filtration under reduced pressure using Whatman GF/B glass fiber filter pre-treated with 0.3% polyethylenelmine, and radioactivity maintained on the filter is measured using liquid scintillation spectrophotometry. The title compounds in the following examples are tested using the above test, which comprises first of all testing competitive inhibition rate of each compound at a concentration of 10 umol/L to binding of [^3H]Spiperone to D2 receptor through a rough screening; and compounds having inhibition rate higher than 95% are subjected to receptor binding assay under a series of concentrations to determine a half-inhibitory concentration (IC50, the concentration of a compound needed for inhibiting binding of 50% [^3H]Spiperone to D2 receptor).

## 6-[4-(4-(3-(6-fluoro-benzisoxazolyl))-1-piperazinyl)-n-butoxy]-(1H)-benzimidazole [IV-4]
  IC50: 15.3 nM
